# This is one part of the list.
# Test system: A. baumannii ATCC 17978
# Test: relative growth (fraction of control); higher = less inhibition
# Conditions: 50 µM
row,SMILES,relative growth
1,O=C(NC1CCCCC1)N(CCCl)[NH2+][O-],1.12
2,Nc1cc(N)nc(SCCC(=O)O)n1,1.16
3,O=C(C1=C[C@H](c2ccsc2)C[C@H](OCCCCO)O1)N1CCN(Cc2ccc3c(c2)OCO3)CC1,1.14
4,Cn1cnc(CCNC(=O)C[C@@H]2CC[C@@H]3[C@H](COC[C@@H](O)CN3C(=O)C3CC3)O2)c1,0.957
5,COCC(=O)N(C)C[C@@H]1Oc2cc(C#CCN(C)C)ccc2S(=O)(=O)N([C@@H](C)CO)C[C@@H]1C,1.04
6,O=C(O)COCC(=O)NCc1ccco1,0.963
7,COc1ccc(NC(=O)N(C)C[C@H]2Oc3ncc(C#C[C@@H](C)O)cc3C(=O)N([C@@H](C)CO)C[C@@H]2C)cc1,1.13
8,COC(=O)C[C@@H]1C(=O)NCCN1C(=O)NS(=O)(=O)c1ccc(C)cc1,1.11
9,COCC#Cc1ccc2c(c1)O[C@@H](CN(C)C(=O)C1CCOCC1)[C@H](C)CN([C@H](C)CO)S2(=O)=O,1.03
10,CCOC(=O)c1nnn(CC(N)=O)c1C,1.11
11,COc1cc(NC(C)CCCN)c2ncccc2c1.O=P(O)(O)O.O=P(O)(O)O (stereo not given),1.06
12,COc1cccc(S(=O)(=O)N2C[C@H](O)COC[C@@H]3O[C@H](CC(=O)N4CCN(C)CC4)CC[C@H]32)c1,0.967
13,Clc1ccccc1Nc1ccc(-c2ccncc2)s1,1.09
14,CCOC(=O)CCC(=O)O[C@H]1[C@H](O[C@@H]2[C@@H](C)[C@H](O[C@H]3C[C@@](C)(OC)[C@@H](O)[C@H](C)O3)[C@@H](C)C(=O)O[C@H](CC)[C@@](C)(O)[C@H](O)[C@@H](C)C(=O)[C@H](C)C[C@@]2(C)O)O[C@H](C)C[C@@H]1N(C)C,0.214
15,C=CCOC(=O)[C@@H]1[C@H]2C(=O)O[C@H](c3ccccc3)[C@H](c3ccccc3)N2[C@H](c2ccc(OCCOC(=O)[C@H]3C[C@H]4C(=O)N[C@@H](CCCCNC(C)=O)C(=O)N4[C@H]3c3cccc(OCCO)c3)cc2)[C@@]12C(=O)Nc1ccc(I)cc12,1.15
16,C[C@H]1CN([C@@H](C)CO)C(=O)c2cc(Br)cnc2O[C@H]1CN(C)S(=O)(=O)c1cccs1,0.966
17,COc1ccc(C(=O)O)cc1,1.09
18,CS(=O)(=O)Nc1ccc([N+](=O)[O-])cc1Oc1ccccc1,0.927
19,COc1cccc(S(=O)(=O)N2C[C@H](O)COC[C@H]3O[C@@H](CC(=O)NCCCN4CCOCC4)CC[C@@H]32)c1,0.792
20,COC(=O)c1cn(C[C@@H](Cc2ccccc2)NC(=O)N[C@H](CO)CCc2oc(C(C)=O)c(C(=O)OC)c2C(=O)OC)nn1,0.837
21,CN(C)[C@@H]1C(O)=C(C(N)=O)C(=O)[C@@]2(O)C(O)=C3C(=O)c4c(O)cccc4[C@@](C)(O)[C@H]3[C@H](O)[C@@H]12.Cl,0.201
22,COCCCNC(=O)[C@@]1(Sc2ccc(C)cc2)CC(=O)N(Cc2cc(C(F)(F)F)cc(C(F)(F)F)c2)[C@@H]1c1ccc(CO)cc1,0.98
23,CC(=O)N1CSC[C@H]1C(=O)O,0.964
24,C[C@@H]1C[C@H](C)CN(Cc2nc3c(c(=O)n(C)c(=O)n3C)n2CC(N)=O)C1,1.08
25,C[C@H](N)C(=O)O,1.03
26,O=C1NC2=C(C(=O)OC2)[C@H](c2ccccc2)N1,0.98
27,COc1ccc([C@@H]([C@H](Cc2ccccc2)OC(C)=O)N2C[C@@H]3C(=NO[C@H]3[C@@H](OC(C)=O)c3ccccc3)[C@@H]2Cc2ccccc2)cc1,1.1
28,C[C@H]1CN([C@@H](C)CO)C(=O)Cc2cc(NC(=O)Nc3ccc(Cl)c(Cl)c3)ccc2O[C@H]1CN(C)S(=O)(=O)c1ccc(Oc2ccccc2)cc1,0.997

row,SMILES,relative growth
1,COc1ccc(COC[C@@]23Oc4ccccc4[C@@H](NC(=O)N2C)[C@H]3COC(=O)NCCCCCC(=O)NO)cc1,0.833
2,Cc1ccc([C@@H](CN)c2c[nH]c3ccccc23)o1,0.988
3,Cn1cnc2c(C(F)(F)F)nc(N)nc21,0.924
4,C[N+](C)(C)CC(O)CC(=O)O.[Cl-] (stereo not given),0.936
5,CO[C@@H]1CN(C)C(=O)c2cc(NC(=O)c3ccccc3)ccc2OC[C@H](C)N(C(=O)CN(C)C)C[C@@H]1C,0.94
6,OCc1ccccc1,1.01
7,Cc1ccc(S(=O)(=O)N[C@H]2CC[C@H](CC(=O)NCc3ccc(Cl)c(Cl)c3)O[C@@H]2CO)cc1,1.14
8,O=C1NC[C@@H](c2ccccc2)OC(=O)[C@H](Cc2ccc(F)cc2)CCC=CC[C@@H]1CC(=O)N(CCO)Cc1ccccc1,0.951
9,O=C(C[C@H]1CC[C@H]2[C@@H](COC[C@@H](O)CN2C(=O)Nc2ccc(F)cc2)O1)NCCCN1CCOCC1,1.13
10,CN(C)CCc1c[nH]c2ccc(C[C@H]3COC(=O)N3)cc12,0.931
11,COc1ccccc1S(=O)(=O)N[C@@H]1C=C[C@H](CC(=O)N2CCN(C)CC2)O[C@H]1CO,1.05
12,COc1cc(/C=C/C(=O)O)ccc1O,0.971
13,Cc1c(C#N)c(Sc2ccccc2Cl)nc2ccccc12,1.05
14,NS(=O)(=O)c1cc2c(cc1Cl)NCNS2(=O)=O,1.15
15,COc1ccccc1CN1C(=O)c2ccccc2[C@](Cc2ccccc2I)(C(=O)NCC(F)(F)F)[C@@H]1c1ccc(CO)cc1,0.979
16,Cc1cc(NC(=O)CSc2nnc[nH]2)no1,0.962
17,CC(C)(N)c1ccc(F)cc1,1.19
18,CNNCc1ccc(C(=O)NC(C)C)cc1,1.12
19,Nc1ccc(C(=O)Oc2ccccc2)c(O)c1,1.04
20,OCCN(CCO)c1nc2ccccc2[nH]1,0.971
21,C[C@H](CO)N1C[C@H](C)[C@@H](CN(C)C(=O)Nc2ccccc2C(F)(F)F)OCc2cnnn2CCCC1=O,1.1
22,CSc1cc(-c2ccc(Cl)cc2)nc(-c2cccs2)c1,1.17
23,C[n+]1cccc(C(=O)[O-])c1,1.07
24,Clc1cccc(Cl)c1CSCc1cc2ccccc2o1,1.02
25,O=C(CN1CCOCC1)N[C@H]1CC[C@H](CCNC(=O)Nc2cc(F)ccc2F)O[C@H]1CO,0.813
26,COc1cccc(C#Cc2ccc3c(c2)O[C@H](CN(C)C(=O)c2ccccn2)[C@H](C)CN([C@H](C)CO)S3(=O)=O)c1,1.14
27,Cc1cc(C)n(C(=O)Cn2cc([N+](=O)[O-])cn2)n1,0.842

# From published antibiotic growth screens (doi:10.1038/s41589-023-01349-8)
